The values below are quoted from earlier work in PMC11852064 (Antibiotics, 2025).

For this series the following is noted: cited from earlier work.

In the case of Dalbavancin, the Terminal half-life entry was “about 14.4 days”.
